Reported properties for industrial, environmental and drug-like chemicals

From the experimental data distributed with OPERA 2.9.

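OPERA's authors assembled the values from existing databases and did not measure them anew. One number stands for a compound and property, with no spread given. Method and conditions are not stated for these values. The measured form (salt, isomer or mixture) is not always the one drawn. Some entries may be limits or estimates that an upstream database listed as plain numbers.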

Melting points are in °C. Boiling points are in °C, nominally at 760 mmHg. logP is the log10 of the octanol-water partition coefficient; higher is more lipophilic. Water solubility is log10 of mol/L, nominally at 25 °C; higher is more soluble. Vapor pressures (log10 mmHg) refer to near room temperature, 15 to 30 °C; higher is more volatile. The Henry's law constant is on a log10 scale in atm·m3/mol (set defined at 25 °C); higher favours air over water. The unbound fraction in human plasma runs from 0 (all bound) to 1 (all free). Clint is human hepatic intrinsic clearance in µL/min per million cells; 0 means that no clearance was seen. Cells with "n/a" have no entry in this list.

compound	name	melting point (°C)	bp (°C)	logP (octanol/water)	water solubility (log10 mol/L)	log vapor pressure (log10 mmHg)	log Henry constant (log10 atm·m3/mol)	fraction unbound	intrinsic clearance (µL/min/10^6 cells)
O=Nc1ccc(O)cc1	4-Nitrosophenol	133	n/a	n/a	n/a	-4.62	n/a	n/a	n/a
CCOP(=S)(OCC)SCSP(=S)(OCC)OCC	Ethion	n/a	150	n/a	n/a	n/a	n/a	n/a	10.41
CC(Oc1cccc(Cl)c1)C(=O)O (stereo not drawn)	Cloprop	n/a	n/a	n/a	n/a	n/a	n/a	0.02173	0
CN1COCN(Cc2cnc(Cl)s2)C1=N[N+](=O)[O-]	Thiamethoxam	n/a	n/a	n/a	-1.851	n/a	n/a	n/a	0.61
CCOP(Oc1c(C)cc(C(C)(C)C)cc1C(C)(C)C)Oc1c(C)cc(C(C)(C)C)cc1C(C)(C)C	Bis(2,4-di-tert-butyl-6-methylphenyl)ethyl phosphite	90	n/a	n/a	-7.4	-7.347	n/a	n/a	n/a
C=CCC1=C(C)C(OC(=O)C2C(C=C(C)C)C2(C)C)CC1=O (stereo not drawn)	Allethrin	n/a	282	n/a	n/a	n/a	-4.545	0.29	n/a
C[C@]12CCC3=C4CCC(=O)C=C4CC[C@H]3[C@@H]1CC[C@@H]2O	9,10-Dehydro-19-nortestosterone	179.8	n/a	2.4	-3.71	-10.87	n/a	n/a	n/a
COc1cccc(C(=O)NN(C(=O)c2cc(C)cc(C)c2)C(C)(C)C)c1C	Methoxyfenozide	n/a	n/a	n/a	n/a	-7.955	-8.791	0.06087	16.2
CC(=O)c1cc2c(cc1C)C(C)(C)C(C)C2(C)C (stereo not drawn)	Phantolide	58.1	n/a	5.59	-4.703	-5.06	n/a	n/a	n/a
CCOP(=O)(NC(C)C)Oc1ccc(SC)c(C)c1 (stereo not drawn)	Fenamiphos	n/a	n/a	n/a	n/a	n/a	n/a	0.03995	62.11
CN1CSC(=S)N(C)C1	Dazomet	n/a	n/a	n/a	n/a	n/a	n/a	0.8909	12.42
CC(C)=C1OC(=O)N(c2cc(OC3CCCC3)c(Cl)cc2F)C1=O	Pentoxazone	n/a	n/a	n/a	n/a	-7.084	-6.746	n/a	n/a
CCOCCN(C(=O)CCl)C(=C(C)C)c1ccccc1	Pethoxamid	n/a	n/a	n/a	-2.87	-5.593	-10.12	n/a	n/a
CC(C)C(C)(N)C#N (stereo not drawn)	2-Amino-2,3-dimethylbutanenitrile	-11	n/a	n/a	n/a	-0.237	n/a	n/a	n/a
C[C@]12CC[C@H]3[C@@H](CCC4=CC(=O)CC[C@@]43C=O)[C@@H]1CC[C@@H]2O	19-Aldotestosterone	155	n/a	3.32	-4.111	n/a	n/a	n/a	n/a
C(CCOCC1CO1)COCC1CO1 (stereo not drawn)	1,4-Butanediol diglycidyl ether	-21.5	n/a	n/a	n/a	-2.732	n/a	n/a	n/a
CCCSC(=O)Cl	S-(Propyl) chlorothioformate	n/a	155	n/a	n/a	0.797	n/a	n/a	n/a
CSC1=N[C@@](C)(c2ccccc2)C(=O)N1Nc1ccccc1	(S)-1-Anilino-4-methyl-2-methylthio-4-phenylimidazolin-5-one	n/a	n/a	n/a	n/a	-8.593	-10.31	n/a	n/a
CCC(C)OP(=S)([S-])OCCCCCC(C)C.CCC(C)OP(=S)([S-])OCCCCCC(C)C.[Zn+2] (stereo not drawn)	n/a	2.42	n/a	n/a	-2.669	-5.624	n/a	n/a	n/a
COS(=O)(=O)c1ccc(C)cc1	Methyl toluene-4-sulfonate	n/a	n/a	1.88	-2.333	n/a	n/a	n/a	n/a
CC(COc1ccc(Oc2ccccc2)cc1)Oc1ccccn1 (stereo not drawn)	Pyriproxyfen	n/a	318	5.135	-5.939	n/a	n/a	0.00175	16.86
O=C(O)CCCC(=O)OOC(=O)CCCC(=O)O	Pentanoic acid, 5,5'-dioxybis[5-oxo-	56.2	n/a	-0.4	n/a	-4.862	n/a	n/a	n/a
CN1C[C@H](C(=O)O)C=C2c3cccc4[nH]cc(c34)C[C@H]21	Lysergic acid	n/a	n/a	-0.24	-3.002	-9.639	n/a	n/a	n/a
CC(C)C1(C)N=C(c2ncccc2C(=O)O)NC1=O (stereo not drawn)	Imazapyr	n/a	n/a	n/a	n/a	-10.53	n/a	n/a	0.39
CC[C@@H](CO)NC(=O)[C@@H]1C=C2c3cccc4c3c(cn4C)C[C@H]2N(C)C1	Methysergide	n/a	n/a	1.5	-3.198	n/a	n/a	0.34	n/a
O=P(N1CCOCC1)(N1CCOCC1)N1CCOCC1	Trimorpholinophosphine oxide	n/a	n/a	-0.98	n/a	-8.013	n/a	n/a	n/a
NS(=O)(=O)C(F)(F)C(F)(F)C(F)(F)C(F)(F)C(F)(F)C(F)(F)C(F)(F)C(F)(F)F	Perfluorooctanesulfonamide	151.5	n/a	n/a	n/a	n/a	n/a	0.001515	n/a
CCOC(=O)N(C)C(=O)CSP(=S)(OCC)OCC	Mecarbam	17	n/a	n/a	n/a	n/a	-9.046	n/a	n/a
C[C@]12COC(=O)C[C@@H]1CC[C@@H]1[C@@H]2CC[C@@]2(C)[C@H]1CC[C@]2(C)O	Oxandrolone	n/a	n/a	4.2	-4.34	n/a	n/a	n/a	n/a
CC1(C)C(C(=O)OC(C#N)c2cccc(Oc3ccccc3)c2)C1(C)C (stereo not drawn)	Fenpropathrin	n/a	n/a	n/a	-6.025	n/a	n/a	0.00644	n/a
C[C@@H](CO)NC(=O)[C@@H]1C=C2c3cccc4[nH]cc(c34)C[C@H]2N(C)C1	Ergometrine	n/a	n/a	0.9	-3.006	n/a	n/a	n/a	n/a
CCC(C)(C)OOC(=O)C(C)(C)C	n/a	-33	n/a	3.3	-2.572	n/a	n/a	n/a	n/a
C1=CCCC=CCCC=CCC1	1,5,9-Cyclododecatriene	n/a	n/a	n/a	n/a	-1.097	n/a	0.04143	n/a